Test [1] concerns the target streptavidin (Perkin Elmer Life Sciences; also as streptavidin-coated 96 well plates, Innotrac Diagnostics) (UniProt P22629). In words: multiwell plate assay (Example 4): Eu-loaded BCCP-ferritin particles on streptavidin-coated wells, europium inside ferritin detected; control with 0.001 mM soluble biotin.
Test [2] shares this target. In words: multiwell plate assay (Example 4) with Eu-labelled streptavidin as label; reference is ferritin particles without binding molecule.

For “Ferritin based particles expressing BCCP on their surface (BCCP-Human ferritin light chain fusion protein, plasmid pBccpHFI) (from UniProt P0ABD8 70-156; P02792 2-175)”, in test [1], the fold signal without biotin as compared to control with excess soluble biotin is 163 fold. For the same substance, the fold signal as compared to particles produced with pET-26(+)rHuLFt in test [2] came out at 326 fold.

Source of the values: patent publication US20060148016A1.
